# AlphaSeq binding of Ab-91 heavy chain variants to a spike HR2 peptide

Data: MIT Lincoln Laboratory AlphaSeq set, Engelhart et al. 2022, doi:10.1038/s41597-022-01779-4, as distributed in FLAb.

The target is the same throughout: PDVDLGDISGINAS, from the HR2 region of SARS-CoV-2 spike.

Each scFv is VL, a (GGGGS)3 linker, VH, as in the parent Ab-91, and differs from it in the CDRs of the heavy chain only.
VL: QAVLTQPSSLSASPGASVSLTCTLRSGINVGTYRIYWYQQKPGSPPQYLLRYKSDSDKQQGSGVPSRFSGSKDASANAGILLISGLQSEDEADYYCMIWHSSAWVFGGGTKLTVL
VH: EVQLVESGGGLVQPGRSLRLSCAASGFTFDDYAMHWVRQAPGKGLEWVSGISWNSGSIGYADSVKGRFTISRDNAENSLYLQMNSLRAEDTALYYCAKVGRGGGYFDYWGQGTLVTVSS

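The starting antibody came from a phage panning campaign against this peptide. Variants in AAYL51 differ from the parent at up to three CDR positions; double and triple changes were sampled at random. In AlphaSeq, yeast of one mating type display the scFv and yeast of the other type display the target. Mating (16 h, 30 °C) was followed by selection of diploids and sequencing of their barcodes. Read counts were normalised to the haploid input and turned into Kd by a linear fit to BCL2-family pairs of known affinity, for each replicate. Mating was done three times.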

The parent's heavy chain CDRs are GFTFDDYAMH, GISWNSGSIGYADSVK, VGRGGGYFDY; each variant's own CDRs replace them letter for letter.
Numbers give log10(Kd / nM), so 0 is 1 nM and 3 is 1 µM. Smaller is tighter.
"nd" means that the variant was in the library but no mating with the target was seen in that replicate; the authors take this as a sign of poor binding, and no number exists.
Three control strains display no target. For library AAYL51, 21% of the pairings with them gave a signal, with a median of 4.54 and one signal in twenty below 3.26, so weak values seen in few replicates may be background. The control count says in how many pairings with the empty strains this scFv gave a signal, with their mean in brackets.

{"CDR-H1": "GETVDDYAMH", "CDR-H2": "GISWNSGSIGYADSVK", "CDR-H3": "VGSGGGYFDY", "replicates, log10 nM": "nd nd nd", "signal with controls": "2 of 9 (3.85)"}
{"CDR-H1": "LFTFDDYAMH", "CDR-H2": "GISWNSGSIGYADSVK", "CDR-H3": "IGRGGGYFDY", "replicates, log10 nM": "4.81 4.40 4.05", "signal with controls": "6 of 9 (4.83)"}
{"CDR-H1": "GFTFDDYAMA", "CDR-H2": "GRSWNSGSIGYADSVK", "CDR-H3": "VLRGGGYFDY", "replicates, log10 nM": "nd 5.50 4.99", "signal with controls": "0 of 9"}
{"CDR-H1": "GFTFDDYAMH", "CDR-H2": "GISTNSGSIGYADSVG", "CDR-H3": "VGRGGGSFDY", "replicates, log10 nM": "1.20 1.17 0.44", "signal with controls": "2 of 9 (3.62)"}
{"CDR-H1": "GFTFDDYAMH", "CDR-H2": "GISWNSGSIGVAWSVK", "CDR-H3": "VGRGGGYFDY", "replicates, log10 nM": "3.99 nd 3.19", "signal with controls": "3 of 9 (3.83)"}
{"CDR-H1": "GFTFDDYAMH", "CDR-H2": "GISNRSGSIGYADSVK", "CDR-H3": "VGRGGGYSDY", "replicates, log10 nM": "nd nd nd", "signal with controls": "1 of 9 (2.93)"}
{"CDR-H1": "GFTFDDYAEH", "CDR-H2": "GISWNSGSIGYLDSVK", "CDR-H3": "VGRGGGYFDY", "replicates, log10 nM": "nd nd nd", "signal with controls": "0 of 9"}
{"CDR-H1": "GFTFDDYATH", "CDR-H2": "GISWNSGSIGTADSVK", "CDR-H3": "NGRGGGYFDY", "replicates, log10 nM": "nd 3.53 nd", "signal with controls": "3 of 9 (3.23)"}
{"CDR-H1": "GFTFDDYAMH", "CDR-H2": "GISWNSGSIGAADSVP", "CDR-H3": "VGKGGGYFDY", "replicates, log10 nM": "nd nd nd", "signal with controls": "2 of 9 (3.41)"}
{"CDR-H1": "GFTFDDYAMQ", "CDR-H2": "GISRNSGSIMYADSVK", "CDR-H3": "VGRGGGYFDY", "replicates, log10 nM": "nd 4.51 nd", "signal with controls": "1 of 9 (5.02)"}
{"CDR-H1": "GFPFDDYAMH", "CDR-H2": "GIMWNSGSIGYADSVK", "CDR-H3": "VGRGGGYFDS", "replicates, log10 nM": "2.69 4.71 3.49", "signal with controls": "0 of 9"}
{"CDR-H1": "GFTFDDYAMH", "CDR-H2": "GISWNSGSIGYPDSVK", "CDR-H3": "VGRGGGYFFV", "replicates, log10 nM": "nd nd nd", "signal with controls": "2 of 9 (4.94)"}
{"CDR-H1": "GFTFDDYAMH", "CDR-H2": "GMSWNSGSIGYADSVL", "CDR-H3": "VGRGGGYLDY", "replicates, log10 nM": "nd nd nd", "signal with controls": "0 of 9"}
{"CDR-H1": "GFTFEDYAMH", "CDR-H2": "GISWNSGSIGYADSHK", "CDR-H3": "VGRGGGYFSY", "replicates, log10 nM": "nd nd nd", "signal with controls": "0 of 9"}
{"CDR-H1": "GFTFDDYAMH", "CDR-H2": "DISRNSGSIGYADSVK", "CDR-H3": "VGRGGGYTDY", "replicates, log10 nM": "4.00 nd nd", "signal with controls": "0 of 9"}
{"CDR-H1": "FFTFDDFAMH", "CDR-H2": "GISWNSGSIGYADPVK", "CDR-H3": "VGRGGGYFDY", "replicates, log10 nM": "nd nd nd", "signal with controls": "0 of 9"}
{"CDR-H1": "HFTFDDYAMH", "CDR-H2": "GISWNSGSIGYADSVK", "CDR-H3": "VTLGGGYFDY", "replicates, log10 nM": "nd nd nd", "signal with controls": "1 of 9 (3.58)"}
{"CDR-H1": "GFTFDDYAMH", "CDR-H2": "GILWNSGMIGYAMSVK", "CDR-H3": "VGRGGGYFDY", "replicates, log10 nM": "nd nd nd", "signal with controls": "0 of 9"}
{"CDR-H1": "GFTFDDYAMH", "CDR-H2": "GTSWNSGKIGYADSVK", "CDR-H3": "VGRGGGYFDY", "replicates, log10 nM": "5.02 5.73 4.68", "signal with controls": "2 of 9 (4.41)"}
{"CDR-H1": "GFTFDDYAYH", "CDR-H2": "GISWNSGSIHYADSVY", "CDR-H3": "VGRGGGYFDY", "replicates, log10 nM": "nd nd nd", "signal with controls": "3 of 9 (4.94)"}

The 3 strongest on average among those seen in every replicate, once more:

{"CDR-H1": "GFTFDDYAMH", "CDR-H2": "GISTNSGSIGYADSVG", "CDR-H3": "VGRGGGSFDY", "replicates, log10 nM": "1.20 1.17 0.44", "signal with controls": "2 of 9 (3.62)"}
{"CDR-H1": "GFPFDDYAMH", "CDR-H2": "GIMWNSGSIGYADSVK", "CDR-H3": "VGRGGGYFDS", "replicates, log10 nM": "2.69 4.71 3.49", "signal with controls": "0 of 9"}
{"CDR-H1": "LFTFDDYAMH", "CDR-H2": "GISWNSGSIGYADSVK", "CDR-H3": "IGRGGGYFDY", "replicates, log10 nM": "4.81 4.40 4.05", "signal with controls": "6 of 9 (4.83)"}